## AlphaSeq binding of Ab-14 heavy chain variants to a spike HR2 peptide

Reference: Engelhart et al. 2022, doi:10.1038/s41597-022-01779-4. File: FLAb, binding data.

All variants were tested on one target, the spike HR2 peptide PDVDLGDISGINAS (SARS-CoV-2).

Parent: Ab-14, a human scFv built as VH, three GGGGS repeats, VL. Only the CDRs of the heavy chain vary.
VH: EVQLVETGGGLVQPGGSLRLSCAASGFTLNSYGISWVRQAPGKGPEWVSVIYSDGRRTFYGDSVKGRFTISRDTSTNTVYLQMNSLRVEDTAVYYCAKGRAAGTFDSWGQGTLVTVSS
VL: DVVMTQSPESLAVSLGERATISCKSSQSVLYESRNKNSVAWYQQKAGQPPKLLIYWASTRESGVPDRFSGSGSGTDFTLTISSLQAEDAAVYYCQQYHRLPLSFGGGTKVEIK

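The parent was found by panning a naive human phage display library on the peptide. In library AAYL49, one, two or three CDR residues were substituted; doubles and triples were drawn at random. In AlphaSeq, yeast of one mating type display the scFv and yeast of the other type display the target. The frequency of each diploid, read from paired DNA barcodes, reflects how well the two displayed proteins bind. A regression on co-assayed BCL2-family reference pairs converts the normalised counts of each replicate to an apparent Kd. Mating was done three times.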

The parent's heavy chain CDRs are GFTLNSYGIS, VIYSDGRRTFYGDSVK, GRAAGTFDS; each variant's own CDRs replace them letter for letter. Scale: log10 of Kd in nM, estimated from mating counts; low values are strong binders. Averages over replicates are reported, and they cover detected replicates only. "no signal" means that the variant was in the library but no mating with the target was seen in any replicate; the authors take this as a sign of poor binding, and no number exists. Order: sorted from the lowest average up, undetected variants last. Parent in this assay: reference entry 0.65, copy in this library 4.11 (one replicate of three). Nonspecific signal, from three strains lacking the peptide, appeared in 15% of pairings of library AAYL49, centred on 4.06 (5% of these signals below 2.83); values are not corrected for it. For each scFv, signals with the empty controls are counted beside the result.

"mean, log10 nM",replicates with signal,empty controls,CDR-H1,CDR-H2,CDR-H3
1.30,3 of 3,2 of 9,GFTLNSYGIS,VLYSDGRRAFYGDSVK,GRSAGTFDS
1.30,2 of 3,0 of 9,GFTLNSYGIS,VIYSDGRRTFYGDYVK,GLAAGTFFS
1.42,3 of 3,0 of 9,CFTLNNYGIS,VIYSDGRRTFYGDSVK,GRAAGTFDA
1.54,3 of 3,3 of 9,GDTLNSFGIS,VIYSDGRRTFYIDSVK,GRAAGTFDS
1.82,3 of 3,2 of 9,GFTLHSYGIS,VIYSDGRRTFYGDSRK,GRAAGTFDR
1.84,3 of 3,1 of 9,GFTLNSYGIS,VIYSDGRRTFYGNSVK,GRNAGTFDS
2.01,1 of 3,1 of 9,GFTLNSYGIS,VIYSDGNRTFYGMSVK,GNAAGTFDS
2.12,3 of 3,2 of 9,GFTLNSYGIS,VIYSDGRRTFYGDSCK,GRAAGAFDT
2.24,3 of 3,4 of 9,GTTLNFYGIS,VIYSDGRRTFYGDSVK,GRAAGTFDS
2.70,1 of 3,2 of 9,GFTLNSYGIS,EIYSDGFRTFYGDSVK,GRAAGTFDR
3.28,2 of 3,0 of 9,GDTINSYGIS,VQYSDGRRTFYGDSVK,GRAAGTFDS
3.41,1 of 3,0 of 9,GFTLDSYGIS,VIYSDGARTFRGDSVK,GRAAGTFDS
3.44,1 of 3,1 of 9,NFTLNSYGIS,VILSDGRRTFYGDSNK,GRAAGTFDS
3.48,2 of 3,0 of 9,GNTLNSYGIS,VIYSDGRRTFAGDPVK,GRAAGTFDS
3.49,1 of 3,2 of 9,GFTLNSRGIL,VIYSDGRRTFYGDSVK,GRAQGTFDS
3.52,1 of 3,2 of 9,GFTLSSYGIS,VIYSDGRRTFYGHSVK,GRAAGTFDC
3.71,1 of 3,2 of 9,GFTLNSYGIS,VIYSDYRRTFYGPSVK,GYAAGTFDS
3.76,1 of 3,0 of 9,GFTLNSYHIS,VITSDGRRTFYGDSVK,GRAAGWFDS
3.82,1 of 3,5 of 9,GITLNIYGIS,VIYSDTRRTFYGDSVK,GRAAGTFDS
3.91,2 of 3,2 of 9,GFTLNSYGIS,VISSKGRRTFYGDSVK,GRAACTFDS
4.04,1 of 3,1 of 9,GFTLNPYGIS,VIYSDGRRTFYGCSVK,GYAAGTFDS
4.08,1 of 3,3 of 9,PFTLNSYGNS,VIYSKGRRTFYGDSVK,GRAAGTFDS
4.30,2 of 3,0 of 9,GFTLNSYMIP,VIYSDGRRTFYGDSVK,DRAAGTFDS
4.31,2 of 3,4 of 9,GFTLNSYGIV,VITSDGRRTFYGDSVK,GRAPGTFDS
4.35,3 of 3,8 of 9,GFTLNSYGIS,VIYTDGRVTFYGDSVK,GRAAGNFDS
4.36,3 of 3,4 of 9,KFTLNSYGIS,GIYSDGRRTFYGDSVK,GRAHGTFDS
4.36,3 of 3,5 of 9,GFTLASYGIS,WIYSDGRRTFYGDSVK,GRAAGTEDS
4.38,2 of 3,4 of 9,GFTLFIYGIS,VIYSDIRRTFYGDSVK,GRAAGTFDS
4.49,3 of 3,8 of 9,GFTLNSYGIS,NIYSIGRRTFYGDSVW,GRAAGTFDS
4.54,1 of 3,3 of 9,GFCLNSYGIS,VIKSDGRRTFYGDSVK,GRAAITFDS
4.56,2 of 3,2 of 9,GFTLNSYSIS,VIYSDGRKTFKGDSVK,GRAAGTFDS
4.62,3 of 3,4 of 9,GFTLNSYGIS,VIYSDGRRTFAGDLVK,GRAANTFDS
4.71,1 of 3,3 of 9,GFTLGSGGIS,VIYSDFRRTFYGDSVK,GRAAGTFDS
4.74,2 of 3,2 of 9,GFTMNSYGIS,VPYSDCRRTFYGDSVK,GRAAGTFDS
4.75,2 of 3,0 of 9,GFTLNSYGIS,VIYSDGRRTFYGDSVW,GRIAGHFDS
4.82,1 of 3,2 of 9,GFTLNSYGIS,VIYSDGARTKYGDSVK,GRAARTFDS
5.30,1 of 3,3 of 9,GVTLNSYGIS,VIYWDGARTFYGDSVK,GRAAGTFDS
5.51,1 of 3,0 of 9,GFTLNPYGIS,VIYSDGRRTFYGDSVK,GRAAGTFDA
5.58,1 of 3,1 of 9,GFTLNSYGDS,VIYSDGRRTFYGDSVK,ARAAGLFDS
5.70,1 of 3,3 of 9,KFTLNSYGIS,VIYSHGRRTFMGDSVK,GRAAGTFDS
5.82,1 of 3,3 of 9,GFTLNSYGIS,VIGSDNRRTFYGDAVK,GRAAGTFDS
no signal,0 of 3,0 of 9,GFTLNSYGIS,VHYSDGRRTFYGDSVK,WRAAGTFCS
no signal,0 of 3,0 of 9,GFTLNSYGIS,VIYSDGRRTFYGDLVK,GRWAGTMDS
no signal,0 of 3,4 of 9,GFTLNSYGIS,CIYSDGRRTMYGQSVK,GRAAGTFDS
no signal,0 of 3,0 of 9,GGTLNSYGIS,VIYSDGRRTFYGDSVK,GRAFWTFDS
no signal,0 of 3,4 of 9,GFTLNSYGIS,LIYCDGRRTFYGDFVK,GRAAGTFDS
no signal,0 of 3,0 of 9,GFTLNSYGIS,VIYSDGQRTFYGDSVK,QRPAGTFDS
no signal,0 of 3,1 of 9,GFTLNSEGIS,VIYSPGRRTFYGDSVF,GRAAGTFDS
no signal,0 of 3,4 of 9,GFTLNSYGIA,VIYSDGRRTFYGDSVQ,GRAAQTFDS
no signal,0 of 3,2 of 9,GFTLNSIGIP,VIYSDGRRTFYGDSVK,GRAAATFDS
no signal,0 of 3,0 of 9,GFTLNSYGIS,VIASDGRYTFYGDSVK,GRAAGSFDS
no signal,0 of 3,0 of 9,GFTLNSYGIS,RIYSDGRRTFYGDSVY,WRAAGTFDS
no signal,0 of 3,5 of 9,GFTLNSYGIS,VISSDGRRMFYGDSVK,GRDAGTFDS
no signal,0 of 3,1 of 9,GFTLNSYGIS,IIYSRGRRTFYGDSVK,GRAAGTVDS
no signal,0 of 3,0 of 9,GFTLNSYGSS,VIYSDGRRTFYGDSVK,GRAAGTKDS
no signal,0 of 3,1 of 9,HFTLNSYGIS,NIYSDGRRTFYGDSVK,GRAAGTFHS
no signal,0 of 3,2 of 9,GFTLNSYGIH,VIYSDMRRTFYGDSVK,GRAAGTFDV
no signal,0 of 3,0 of 9,GFTLNQYQIS,VCYSDGRRTFYGDSVK,GRAAGTFDS
no signal,0 of 3,0 of 9,GFTLNSYGIS,VIYSDGRRTCYGDSWK,GRAAFTFDS
no signal,0 of 3,0 of 9,GGTTNSYGIS,VIYSDGRRTFYGDSVK,ARAAGTFDS
no signal,0 of 3,1 of 9,GITLNSYGIS,MIYSDGRRTFYGDSVK,GRAAGTFDT
no signal,0 of 3,0 of 9,GNTLNSYGIS,VPYSDGRRTFYGDSVK,FRAAGTFDS
no signal,0 of 3,0 of 9,GFTLNSYGIS,EIYSDGRRTTYGDSVK,CRAAGTFDS
no signal,0 of 3,0 of 9,GFTLNWYGIS,VIYSDGRRTFYGDSVK,GRAAGTFMS
no signal,0 of 3,0 of 9,GFTLNSYGIS,VIYSAGRWTFYGDSVK,GRCAGTFDS
no signal,0 of 3,3 of 9,GFTLNSYWIS,VIQSDGRRTFYGDSVK,GRAASTFDS
no signal,0 of 3,0 of 9,GITLNSYGIS,VIYSFGRRTFYGDSVK,GRAAGTFDP
no signal,0 of 3,1 of 9,GFTLNSYLIS,VIYSDGRRTFYGDSNK,GRAAGTYDS
no signal,0 of 3,2 of 9,GFDLNSYGIS,VIYSDGPRTFYGDSVK,GRAAGTFDV
no signal,0 of 3,1 of 9,GFTLNSYGIS,VIYSPGRRTFYGDSVK,GTAAVTFDS
no signal,0 of 3,1 of 9,GFTLNSMGIS,VRLSDGRRTFYGDSVK,GRAAGTFDS
no signal,0 of 3,1 of 9,GFTLNSYGIS,VIYQDTRLTFYGDSVK,GRAAGTFDS
no signal,0 of 3,1 of 9,GFTLNSYGIS,VIPSDGRRTFYGDSVK,GVAAMTFDS

The first 9 entries again:

CDR-H1,CDR-H2,CDR-H3,"mean, log10 nM",replicates with signal,empty controls
GFTLNSYGIS,VLYSDGRRAFYGDSVK,GRSAGTFDS,1.30,3 of 3,2 of 9
GFTLNSYGIS,VIYSDGRRTFYGDYVK,GLAAGTFFS,1.30,2 of 3,0 of 9
CFTLNNYGIS,VIYSDGRRTFYGDSVK,GRAAGTFDA,1.42,3 of 3,0 of 9
GDTLNSFGIS,VIYSDGRRTFYIDSVK,GRAAGTFDS,1.54,3 of 3,3 of 9
GFTLHSYGIS,VIYSDGRRTFYGDSRK,GRAAGTFDR,1.82,3 of 3,2 of 9
GFTLNSYGIS,VIYSDGRRTFYGNSVK,GRNAGTFDS,1.84,3 of 3,1 of 9
GFTLNSYGIS,VIYSDGNRTFYGMSVK,GNAAGTFDS,2.01,1 of 3,1 of 9
GFTLNSYGIS,VIYSDGRRTFYGDSCK,GRAAGAFDT,2.12,3 of 3,2 of 9
GTTLNFYGIS,VIYSDGRRTFYGDSVK,GRAAGTFDS,2.24,3 of 3,4 of 9